Laboratory results taken from US20130231373A1.

Sequences of proteins named here, by UniProt entry; tags and fusion partners are left off.
UniProt Q13547, whole entry: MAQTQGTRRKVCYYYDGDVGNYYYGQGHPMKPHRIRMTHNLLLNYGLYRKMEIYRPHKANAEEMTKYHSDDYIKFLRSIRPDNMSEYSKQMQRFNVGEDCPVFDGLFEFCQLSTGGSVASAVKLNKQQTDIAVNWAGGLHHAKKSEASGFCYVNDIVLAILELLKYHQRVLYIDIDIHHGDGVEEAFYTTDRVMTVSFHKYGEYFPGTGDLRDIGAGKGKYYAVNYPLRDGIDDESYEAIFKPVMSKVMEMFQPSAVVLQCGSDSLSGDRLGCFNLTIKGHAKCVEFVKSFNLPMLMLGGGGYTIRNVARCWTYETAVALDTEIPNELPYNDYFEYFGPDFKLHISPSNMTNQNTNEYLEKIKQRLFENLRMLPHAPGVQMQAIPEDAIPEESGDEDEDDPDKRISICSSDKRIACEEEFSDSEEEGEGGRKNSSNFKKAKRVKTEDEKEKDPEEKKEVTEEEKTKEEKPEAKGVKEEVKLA

Tests used:
HCT116 = HCT116 IC50 (Table 2); conditions: read-out: HCT116 IC50
HDAC-1 = HDAC-1 (Homo sapiens, UniProt Q13547); test: HDAC Inhibition Assay (purified GST-HDAC protein); conditions: read-out: HDAC-1 IC50
From the text: The baculovirus donor vector pFB-GSTX3 is used to generate a recombinant baculovirus that expresses the HDAC polypeptide. Transfer vectors containing the HDAC coding region are transfected into the DH10Bac cell line (GIBCO) and plated on selective agar plates. Colonies without insertion of the fusion sequence into the viral genome (carried by the bacteria) are blue. Single, white colonies are picked and viral DNAs (bacmid) are isolated from the bacteria by standard plasmid purification procedures. Sf9 cells or Sf21 (American Type Culture Collection) cells are then transfected in 25 cm^3 flasks with the viral DNA using Cellfectin reagent.
Determination of Small Scale Protein Expression in Sf9 Cells
Virus-containing media is collected from the transfected cell culture and used for infection to increase its titer. Virus-containing media obtained after two rounds of infection is used for large-scale protein expression. […]
HDAC assays with purified GST-HDAC protein are carried out in a final volume of 30 μL containing 15 ng of GST-HDAC protein, 20 mM tris-HCl, pH 7.5, 1 mM MnCl2, 10 mM MgCl2, 1 mM DTT, 3 μg/mL poly(Glu,Tyr) 4:1, 1% DMSO, 2.0 μM ATP (γ-[^33P]-ATP 0.1 μCi). […] Membranes are counted after drying at ambient temperature, mounting in Packard TopCount 96-well frame, and addition of 10 μL/well of MICROSCINT™ (Packard). […]
Normalized IC50=measured IC50 average ref. IC50/measured ref. IC50 […]

Compound | IC50 (HCT116) [nM] | IC50 (HDAC-1) [nM]
O=C(/C=C/c1ccc(CN2CCC[C@@H]2Cn2ncc3ccccc32)cc1)NO | 1 | 
O=C(/C=C/c1ccc(CN2CCC[C@@H]2Cn2cc3ccccc3n2)cc1)NO | 9 | 7
O=C(/C=C/c1ccc(CN2CCC[C@H]2CN2CCc3ccccc32)cc1)NO | 100 | 
Cc1[nH]c2ccccc2c1C[C@H]1C[C@H]2CCC[C@H]2N1Cc1ccc(/C=C/C(=O)NO)cc1 |  | 2
